Experimental data taken from patent US20220144812A1, “QUINOLINE DERIVATIVES AND THEIR USE FOR THE TREATMENT OF CANCER” (Epizyme, Inc., priority 2019, published 2022).
pIC50: −log10 of the molar value. Like-named read-outs stand apart in the source and are kept apart here.

Protein sequences, listed by entry. Tags and fused reporters are not part of them. Residues count along the entry.
UniProt Q92793, 1084-1701 limits assumed: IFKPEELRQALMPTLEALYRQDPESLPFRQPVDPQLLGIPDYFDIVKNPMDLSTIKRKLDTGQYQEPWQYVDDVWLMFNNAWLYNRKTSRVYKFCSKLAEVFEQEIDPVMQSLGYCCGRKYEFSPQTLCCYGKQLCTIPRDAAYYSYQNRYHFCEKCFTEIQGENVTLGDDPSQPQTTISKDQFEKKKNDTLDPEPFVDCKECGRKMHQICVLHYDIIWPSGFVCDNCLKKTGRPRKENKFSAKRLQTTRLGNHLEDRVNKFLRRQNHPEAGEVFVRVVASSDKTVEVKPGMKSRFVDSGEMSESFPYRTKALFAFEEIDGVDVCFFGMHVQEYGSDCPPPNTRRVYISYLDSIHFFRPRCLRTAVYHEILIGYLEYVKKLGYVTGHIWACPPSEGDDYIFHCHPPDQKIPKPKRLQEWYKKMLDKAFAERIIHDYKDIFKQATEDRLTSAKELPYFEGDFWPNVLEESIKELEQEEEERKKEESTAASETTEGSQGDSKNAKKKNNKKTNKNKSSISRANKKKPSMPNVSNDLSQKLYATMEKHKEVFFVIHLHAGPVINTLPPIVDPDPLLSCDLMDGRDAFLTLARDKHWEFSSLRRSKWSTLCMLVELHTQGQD
UniProt Q09472, 1048-1664 limits assumed: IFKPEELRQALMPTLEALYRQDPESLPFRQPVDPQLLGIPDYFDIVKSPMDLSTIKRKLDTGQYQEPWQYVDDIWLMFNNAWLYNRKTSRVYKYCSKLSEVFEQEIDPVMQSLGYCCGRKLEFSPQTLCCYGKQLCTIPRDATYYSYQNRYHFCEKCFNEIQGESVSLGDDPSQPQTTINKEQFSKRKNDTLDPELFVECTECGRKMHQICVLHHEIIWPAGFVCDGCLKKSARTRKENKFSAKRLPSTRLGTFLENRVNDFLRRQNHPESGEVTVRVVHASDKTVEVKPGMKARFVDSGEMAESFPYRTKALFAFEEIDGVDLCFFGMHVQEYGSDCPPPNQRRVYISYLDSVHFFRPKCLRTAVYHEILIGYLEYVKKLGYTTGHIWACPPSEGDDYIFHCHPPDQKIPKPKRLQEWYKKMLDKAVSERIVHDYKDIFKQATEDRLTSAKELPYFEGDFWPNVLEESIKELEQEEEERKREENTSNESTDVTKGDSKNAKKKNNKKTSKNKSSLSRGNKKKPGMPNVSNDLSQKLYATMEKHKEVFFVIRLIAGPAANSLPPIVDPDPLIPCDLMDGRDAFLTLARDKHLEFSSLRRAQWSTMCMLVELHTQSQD

Tests used:
647V cells = assay: High throughput proliferation (HTP) assay
Text: The following example describes methods and materials relating to a high throughput proliferation (HTP) assay. IC50 values (micromolar) are summarized in Table 1, Table 2, and Table 3 under the column labeled: “CREBBP HTP IC50 (micromolar).”
MATERIALS: 647V cell line, Dulbecco's MEM, penicillin-streptomycin, heat inactivated fetal bovine serum, D-PBS, and CellTiter-Glo were commercially available.
647V adherent cells were maintained in complete growth medium (Dulbecco's MEM supplemented with 15% v/v heat inactivated fetal bovine serum) and cultured at 37° C. under 5% CO2.
METHOD: Measurement of the effect of compound in High Throughput Proliferation (HTP) assays was performed as follows: Exponentially growing 647V cells were plated, in triplicate, in 384-well plates at the appropriate cell density in a final volume of 50 μl. Cells were incubated in the presence of increasing concentrations of compound. Viable cell number was determined at day 7 by addition of 35 μl CellTiter-Glo to each well of the plate, incubated in the dark for 30 minutes, and read on a PerkinElmer EnVision instrument to enumerate the number of cells.

CREBBP (1084-1701) = CREBBP (1084-1701) (Homo sapiens, UniProt Q92793); assay: Biochemical assay for CREBBP (1084-1701), SAMDI
Text: The following example describes materials and methods relating to a biochemical assay for CREBBP (1084-1701). IC50 values (micromolar (μM)) are summarized in Table 1, Table 2, and Table 3 under the column labeled: “CREBBP Biochemistry IC50 (micromolar).”
MATERIALS: Reagents 1M Tris pH 8.0, Tween 20 10%, DTT, bovine serum gelatin (BSG) 2%, Peptide #233 (biotin-H3 11-25, K14R, K23R), Acetyl-CoA, CREBBP (1084-1701), formic acid (100%), and sodium bicarbonate were commercially available.
METHODS: The effect of compounds was measured in the following biochemical assay using CREBBP (1084-1701). Enzyme mix 30 μL per well was added using a Multi-drop to wells of prepared Compound Stock plate. The enzyme was incubated in the Compound Stock plate for 30 minutes at room temperature. Substrate mix, 20 μL per well, was added to Compound Stock plate using a Multi-drop. The plate was covered and incubate 30 minutes at room temperature. The reaction was stopped with addition of 5 μL per well of 5% formic acid using a Multi-drop. The plate was Incubated for 30 minutes at room temperature. The reaction mixture was neutralized with addition of 5 μL per well of 10% sodium bicarbonate using a Multi-drop. The plate was Incubated for 35 minutes at room temperature. The reaction mixture was Transferred 2.5 μL per well to a SAMDI biochip. The plate was Incubated for 60 minutes at room temperature. The samples were washed, dried, and matrix applied to SAMDI biochip. The SAMDI biochip was then read on the mass spectrometer.

[1] = test system: H3K18Ac in HB-CLS-2 cells; assay: H3K18AC in-cell western (ICW) assay
Text: The following example describes methods and materials relating to an H3K18AC in-cell western assay. IC50 values (micromolar (μM)) are summarized in Table 1, Table 2, and Table 3 under the column labeled: “CREBBP ICW IC50 (micromolar).”
MATERIALS: HB-CLS-2 cell line, DMEM: Ham's F12 medium (1:1 mixture), penicillin-streptomycin, heat inactivated fetal bovine serum, D-PBS, Odyssey blocking buffer, 800CW goat anti-rabbit IgG (H+L) antibody, Licor Odyssey CLx Infrared Scanner, H3K18Ac rabbit monoclonal antibody. DRAQS fluorescent probe solution (5 mM), and 100% methanol were commercially available. HB-CLS-2 adherent cells were maintained in complete growth medium (DMEM: Ham's F12 supplemented with 10% v/v heat inactivated fetal bovine serum) and cultured at 37° C. under 5% CO2.
METHOD: Cell Treatment, ICW for detection of H3K18Ac and DNA content. HB-CLS-2 cells were seeded in assay medium (DMEM: Ham's F12 supplemented with 10% v/v heat inactivated fetal bovine serum and 1% Penicillin/Streptomycin) at a concentration of 80,000 cells per mL in a Poly-D-Lysine coated 384-well culture plates at 50 μL per well. Plates were incubated at room temperature for 30 minutes and then incubated at 37° C., 5% CO2 for additional 16-24 hours. Compounds and DMSO normalization were then added directly to the plates using a D300 Digital Dispenser and returned to the incubator at 37° C., 5% CO2 for 2 hrs. After the incubation, the contents of the plates were discarded into the appropriate waste stream and blotted on laboratory tissue to remove residual liquid. 90 μL per well of 100% ice cold methanol was added to the plates and incubated at room temperature for 15 minutes. Then methanol was then discarded into the appropriate waste stream and the plates again blotted on laboratory tissue to remove residual liquid. Plates were transferred to a Biotek 405 plate washer and washed 3 times with 100 μL per well of wash buffer (1X PBS containing 0.1% Triton X-100 (v/v)). Next, 50 μL per well of Odyssey blocking buffer with 0.1% Tween 20 (v/v) was added to each plate and incubated for 1 hour at room temperature. Blocking buffer was removed and 20 μL of primary antibody were added (α-H3K18Ac diluted 1:800 in Odyssey buffer with 0.1% Tween 20 (v/v)) and plates were incubated overnight (16 hours) at 4° C. Plates were washed 5 times with 100 μL per well of wash buffer. Next 20 μL per well of secondary antibody was added (1:400 800CW goat anti-rabbit IgG (H+L) antibody, 1:2000 DRAQ5 in Odyssey buffer with 0.1% Tween 20 (v/v)) and incubated for 1 hour at room temperature. The plates were washed 3 times with 100 μL per well wash buffer then 3 times with 100 μL per well of water. Plates were allowed to dry at room temperature then imaged on the Licor Odyssey CLx machine which measured integrated intensity at 700 nm and 800 nm wavelengths. Both 700 and 800 channels were scanned.

EP300 (P300(1048-1664)) = EP300 (P300(1048-1664)) (Homo sapiens, UniProt Q09472); assay: Biochemical assay for EP300, SAMDI
Text: The following example describes materials and methods relating to a biochemical assay for EP300. IC50 values (micromolar (μM)) are summarized in Table 1, Table 2, and Table 3 under the column labeled: “EP300 Biochemistry IC50 (micromolar).”

[2] = read-out: CREBBP HTP IC50 (micromolar)
[3] = read-out: CREBBP Biochemistry IC50 (micromolar), SAMDI
[4] = read-out: CREBBP ICW IC50 (micromolar)
[5] = read-out: EP300 Biochemistry IC50 (micromolar), EP300, SAMDI
[6] = read-out: CREBBP Biochemistry IC50, SAMDI
[7] = read-out: CREBBP ICW IC50, HB-CLS-2 cells

SMILES | pIC50 (647V cells; [2]) | pIC50 (CREBBP (1084-1701); [3]) | pIC50 [1, 4] | pIC50 (EP300 (P300(1048-1664)); [5]) | pIC50 (CREBBP (1084-1701); [6]) | pIC50 [1, 7] | pIC50 (647V cells; read-out: CREBBP HTP IC50, 647V cells) | pIC50 (EP300 (P300(1048-1664)); read-out: EP300 Biochemistry IC50, EP300, SAMDI) | pIC50 (CREBBP (1084-1701); read-out: CREBBP Biochemistry IC50 (micromolar), Peptide #233, Acetyl-CoA, SAMDI mass spectrometry) | pIC50 (EP300 (P300(1048-1664)); read-out: EP300 Biochemistry IC50 (micromolar), P300(1048-1664), Peptide #233, Ac-CoA, SAMDI mass spectrometry)
CCc1cc(CN(C)C(=O)c2cc(-c3ccc(NCCNC)c(C)n3)nc3ccc(Cl)cc23)on1 | 6.68 | 7.33 | 6.61 | 6.52 | – | – | – | – | – | –
CCc1ncc(CN(C)C(=O)c2nc(-c3cc4c(NC)[nH]nc4cc3C)nc3ccc(COC)cc23)n1C | 7.23 | 7.44 | 6.95 | 7.87 | – | – | – | – | – | –
CCn1ncc(CN(C)C(=O)c2nc(-c3ccc(OCCNC(=O)OC(C)(C)C)c(OC)c3)nc3ccc(Cl)cc23)c1C | 5.51 | 5.05 | 5.29 | 4.89 | – | – | – | – | – | –
CCc1ncc(CN(C)C(=O)c2cc(-c3ccc(NCCN(C)C)c(F)n3)nc3ccc(Cl)cc23)n1C | 6.52 | 7.37 | 6.52 | 7.29 | – | – | – | – | – | –
CCn1ncc(CN(C)C(=O)c2nc(-c3cc(N(C)C)c4cn[nH]c4c3)nc3ccc(Cl)cc23)c1C | 6.31 | 7.48 | 6.31 | 6.89 | – | – | – | – | – | –
CCn1ncc(CN(C)C(=O)c2cc(-c3ccc(NCCN(C)C)c(C)n3)nc3ccc(Cl)cc23)c1CF | 6.00 | 6.75 | 6.23 | 6.16 | – | – | – | – | – | –
CCc1ncc(CN(C)C(=O)c2cc(-c3ccc(NC4CNC4)c(C)n3)nc3ccc(Cl)cc23)n1C | 7.07 | 7.76 | 6.44 | 8.02 | – | – | – | – | – | –
CCn1ncc(CN(C)C(=O)c2nc(-c3cnc(Cl)s3)nc3ccc(Cl)cc23)c1C | – | – | – | – | 5.12 | 4.85 | – | – | – | –
Cc1nc(-c2cc(C(=O)N(C)Cc3onc(C4CC4)c3C)c3cc(Cl)ccc3n2)ccc1NCCN(C)C | 5.94 | 5.59 | 5.81 | 5.42 | – | – | – | – | – | –
CCn1ncc(CN(C)C(=O)c2nc(-c3cc4c(NC)[nH]nc4cc3C)nc3ccc(COC)cc23)c1C | 7.18 | 7.47 | 7.12 | 7.88 | – | – | – | – | – | –
CCn1ncc(CN(C)C(=O)c2nc(-c3cc4c(cc3C)CCN4)nc3ccc(Cl)cc23)c1C | 5.17 | 5.00 | 4.93 | 5.39 | – | – | – | – | – | –
CCn1ncc(CN(C)C(=O)c2nc(-c3cc(C)cc(NCCO)c3)nc3ccc(Cl)cc23)c1C | 6.00 | 6.70 | 6.03 | 6.34 | – | – | – | – | – | –
CCn1ncc(CN(C)C(=O)c2nc(-c3cc4c(NC)n[nH]c4cc3C)nc3ccc(Cl)cc23)c1C | 7.62 | 8.03 | 7.49 | 8.49 | – | – | – | – | – | –
CCn1ncc(CN(C)C(=O)c2nc(-c3ccc(OCCNC)c(Cl)c3)nc3ccc(CNC)cc23)c1C | 5.77 | 5.94 | 5.14 | 5.48 | – | – | – | – | – | –
CCc1cc(-c2nc(C(=O)N(C)Cc3cnn(CC)c3C)c3cc(Cl)ccc3n2)ccc1OCCCNC | 6.82 | 7.66 | 6.33 | 7.06 | – | – | – | – | – | –
CCn1ncc(CN(C)C(=O)c2nc(-c3cc(Cl)cc(CN(C)C(=O)OC(C)(C)C)c3)nc3ccc(Cl)cc23)c1C | – | – | – | – | 5.16 | 5.70 | 4.72 | 4.59 | – | –
CCn1ncc(CN(C)C(=O)c2nc(-c3ccccc3Br)nc3ccc(Cl)cc23)c1C | – | – | – | – | 8.15 | 6.43 | – | – | – | –
CCn1ncc(CN(C)C(=O)c2nc(-c3cc(C(=O)NC)n(C)n3)nc3ccc(Cl)cc23)c1C [Compound 18] | 6.74 | 7.00 | 6.68 | 8.66 | – | – | – | – | – | –
CCn1ncc(CN(C)C(=O)c2nc(-c3cc(C)cc(NCCNC)c3)nc3ccc(Cl)cc23)c1C | 7.48 | 7.80 | 7.12 | 8.06 | – | – | – | – | – | –
CCn1ncc(CN(C)C(=O)c2nc(-c3ccc(OCC(O)CNC)c(OC)c3)nc3ccc(Cl)cc23)c1C (centres unmarked) | 6.20 | 6.26 | 5.47 | 5.85 | – | – | – | – | – | –
CCn1ncc(CN(C)C(=O)c2nc(-c3cc(NCCNC)c4nc[nH]c4c3)nc3ccc(Cl)cc23)c1C | 5.19 | 6.77 | 5.10 | 6.07 | – | – | – | – | – | –
CCn1ncc(CN(C)C(=O)c2nc(-c3ccc(OCCNC)c(OC)c3)nc3ccc(Cl)cc23)c1C | 6.05 | 6.04 | 5.80 | 5.92 | – | – | – | – | – | –
CCn1ncc(CN(C)C(=O)c2cc(-c3ccc(NC(C)CNC)c(C)n3)nc3ccc(Cl)cc23)c1C (centres unmarked) | 7.17 | 7.47 | 6.96 | 7.97 | – | – | – | – | – | –
CCn1ncc(CN(C)C(=O)c2nc(-c3cc(C)cc(N[C@@H]4CCNC4)c3)nc3ccc(Cl)cc23)c1C | 7.42 | 7.92 | 7.06 | 8.40 | – | – | – | – | – | –
CCn1ncc(CN(C)C(=O)c2nc(-c3cc4[nH]ccc4cc3C)nc3ccc(Cl)cc23)c1C | 7.06 | 8.31 | 6.97 | 7.91 | – | – | – | – | – | –
CCn1ncc(CN(C)C(=O)c2cc(-c3cc(NCCNC)cc(OC)n3)nc3ccc(Cl)cc23)c1C | 7.60 | 7.38 | 7.46 | 7.73 | – | – | – | – | – | –
CCc1cccc(-c2nc(C(=O)N(C)Cc3cnn(CC)c3C)c3cc(Cl)ccc3n2)c1 | – | – | – | – | 6.29 | 5.40 | – | – | – | –
CCn1ncc(CN(C)C(=O)c2cc(-c3ccc(OCCNC)c(Cl)c3)nc3ccc(C(C)(C)O)cc23)c1C | 5.15 | 4.46 | – | 5.06 | – | – | – | – | – | –
CCn1ncc(CN(C)C(=O)c2nc(-c3cc4c(NC)n[nH]c4c(F)c3C)nc3ccc(Cl)cc23)c1C | – | – | – | – | – | – | – | – | 4.30 | 4.30
